The values that follow come from PMC5187433.

Like-named read-outs stand apart in the source and are kept apart here.

Data set [1] deals with T1, N-BRDT(1) (Homo sapiens, UniProt Q58F21 1-143). The experiment in a line: EMSA; EMSA: 20 mM Tris pH 7.5, 100 mM NaCl, 5 mM DTT, 0.5 mM EDTA, 4 C; ITC: 20 mM Tris pH 8.0, 150 mM NaCl, 1 mM EDTA, 1 mM TCEP, 20 C; NMR at 34 C.
Data set [2] addresses T1, N-BRDT(1).

B1: 66 bp DNA (dsDNA)
DNA 1: CGATATAGTGTAACGGCTATCACATCACGCTTTCACCGTGGAGACCGGGGTTCGACTCCCCGTATC
DNA 2: GATACGGGGAGTCGAACCCCGGTCTCCACGGTGAAAGCGTGATGTGATAGCCGTTACACTATATCG
Consider B1, for which the Kd (as a rule, the equilibrium constant for the complex coming apart) was 29 µM with N-BRDT(1) [1] and 33 µM with N-BRDT(1) [2].

B2: 25 bp DNA (dsDNA)
DNA 1: CGAAGTGGCCGAGTGGTCTATGGCG
DNA 2: CGCCATAGACCACTCGGCCACTTCG
B2 had a Kd in the data set with N-BRDT(1) [1] of 52 µM.
